Source: patent US5610282A (The United States of America as represented by the …, priority 1995, dated 1997)

Amino acid sequences for entries named in this document (tags omitted).
UniProt P18901, whole entry: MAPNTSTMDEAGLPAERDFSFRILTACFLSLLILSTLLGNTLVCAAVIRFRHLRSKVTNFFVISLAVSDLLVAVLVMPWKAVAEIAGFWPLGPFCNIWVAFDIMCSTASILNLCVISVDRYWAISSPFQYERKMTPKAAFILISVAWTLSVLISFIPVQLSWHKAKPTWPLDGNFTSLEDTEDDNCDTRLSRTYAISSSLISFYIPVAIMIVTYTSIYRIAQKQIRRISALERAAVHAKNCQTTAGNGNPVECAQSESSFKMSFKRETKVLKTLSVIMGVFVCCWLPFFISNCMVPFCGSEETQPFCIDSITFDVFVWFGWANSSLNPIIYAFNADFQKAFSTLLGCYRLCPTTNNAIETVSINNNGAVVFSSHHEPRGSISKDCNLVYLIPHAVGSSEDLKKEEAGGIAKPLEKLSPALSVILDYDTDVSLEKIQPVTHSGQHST

Biological target: D1 dopamine receptor (Rattus norvegicus, UniProt P18901)
Test: biochemical
Experimental: Expression studies, A full-length cDNA insert, including the multiple cloning site of the λ ZAP II vector, was amplified from the purified λ phage clone using T3 and T7 promoter primers and PCR as described above. […] Competent DH5α cells were transformed and clones containing the appropriate cDNA insert were used for large-scale plasmid preparations via the CsCl gradient purification method. […] The cells were treated with 3 mM sodium butyrate after 48 hours and were harvested after 72 hours.
(ii) Competition analysis of various dopaminergic ligands.

O=C(CCCN1CCC2(CC1)C(=O)NCN2c1ccccc1)c1ccc(F)cc1 [spiperone]
Ki: 290 ± 7 nM
